Assay results published in publication PMC11370232, “Repurposing of a library for high-content screening of inhibitors against Echinococcus granulosus” (Parasites & Vectors, 2024).
Where two headings read alike, the source gives them in different places.

Legend:
E. granulosus PSCs [1] = system: E. granulosus PSCs
E. granulosus PSCs [2] = experiment: microbe, parasite or virus in culture; conditions: Echinococcus granulosus
[3] = primary screen, 50 μM, PSCs, 3-day incubation, PI staining (death rate of PSCs)
[4] = second-stage dose-response, 0.5 μM, PSCs
[5] = second-stage dose-response, 2 μM, PSCs
[6] = second-stage dose-response, 10 μM, PSCs
[7] = second-stage dose-response, 50 μM, PSCs
[8] = read-out: Anti-echinococcus activity % of death, 0.5uM
[9] = read-out: Anti-echinococcus activity % of death, 2uM
[10] = read-out: Anti-echinococcus activity % of death, 10uM
[11] = read-out: Anti-echinococcus activity % of death, 50uM
[12] = read-out: Anti-echinococcus activity % of death

NS(=O)(=O)c1nn2cc(-c3ccccc3)nc2s1 [AEG 3482]
Anti-echinicoccus activity, Dose confirmaiton 0.5uM (E. granulosus PSCs [1]): 0 | Anti-echinicoccus activity, Dose confirmaiton 2uM (E. granulosus PSCs [1]): 0 | Anti-echinicoccus activity, Dose confirmaiton 10uM (E. granulosus PSCs [1]): 0 | Anti-echinicoccus activity, Dose confirmaiton 50uM (E. granulosus PSCs [1]): 100 | Anti-echinicoccus activity, Initiate hits 50uM (E. granulosus PSCs [1]): 100

Cl.O=C(NC1CCNCC1)c1[nH]ncc1NC(=O)c1c(Cl)cccc1Cl [AT7519 HCl]
Anti-echinicoccus activity, Initiate hits 50uM (E. granulosus PSCs [1]; [3]): 98 | Anti-echinicoccus activity, Dose confirmaiton 0.5uM (E. granulosus PSCs [1]; [4]): 0 | Anti-echinicoccus activity, Dose confirmaiton 2uM (E. granulosus PSCs [1]; [5]): 0 | Anti-echinicoccus activity, Dose confirmaiton 10uM (E. granulosus PSCs [1]; [6]): 0 | Anti-echinicoccus activity, Dose confirmaiton 50uM (E. granulosus PSCs [1]; [7]): 100

CCOC(=O)c1c(CSc2ccccc2)n(C)c2cc(Br)c(O)c(CN(C)C)c12.Cl [Arbidol hydrochloride]
Anti-echinicoccus activity, Initiate hits 50uM (E. granulosus PSCs [1]; [3]): 100 | Anti-echinicoccus activity, Dose confirmaiton 0.5uM (E. granulosus PSCs [1]; [4]): 0 | Anti-echinicoccus activity, Dose confirmaiton 2uM (E. granulosus PSCs [1]; [5]): 0 | Anti-echinicoccus activity, Dose confirmaiton 10uM (E. granulosus PSCs [1]; [6]): 0 | Anti-echinicoccus activity, Dose confirmaiton 50uM (E. granulosus PSCs [1]; [7]): 100

CC(=O)OC[C@H]1O[C@@H]([S-])[C@H](OC(C)=O)[C@@H](OC(C)=O)[C@@H]1OC(C)=O.CCP(CC)CC.[Au+] [Auranofin]
MIC90 (minimum inhibitory concentration causing a 90% death of PSCs) (E. granulosus PSCs [1]): 9.4 µM | Anti-echinicoccus activity, Initiate hits 50uM (E. granulosus PSCs [1]; [3]): 100 | Anti-echinicoccus activity, Dose confirmaiton 0.5uM (E. granulosus PSCs [1]; [4]): 0 | Anti-echinicoccus activity, Dose confirmaiton 2uM (E. granulosus PSCs [1]; [5]): 0 | Anti-echinicoccus activity, Dose confirmaiton 10uM (E. granulosus PSCs [1]; [6]): 100 | Anti-echinicoccus activity, Dose confirmaiton 50uM (E. granulosus PSCs [1]; [7]): 100

Cc1ccc(S(=O)(=O)/C=C/C#N)cc1 [Bay 11-7082]
Anti-echinicoccus activity, Initiate hits 50uM (E. granulosus PSCs [1]; [3]): 100 | Anti-echinicoccus activity, Dose confirmaiton 0.5uM (E. granulosus PSCs [1]; [4]): 0 | Anti-echinicoccus activity, Dose confirmaiton 2uM (E. granulosus PSCs [1]; [5]): 0 | Anti-echinicoccus activity, Dose confirmaiton 10uM (E. granulosus PSCs [1]; [6]): 100 | Anti-echinicoccus activity, Dose confirmaiton 50uM (E. granulosus PSCs [1]; [7]): 100

CC(C)(C)c1ccc(S(=O)(=O)/C=C/C#N)cc1 [Bay 11-7085]
Anti-echinicoccus activity, Initiate hits 50uM (E. granulosus PSCs [1]; [3]): 100 | Anti-echinicoccus activity, Dose confirmaiton 0.5uM (E. granulosus PSCs [1]; [4]): 0 | Anti-echinicoccus activity, Dose confirmaiton 2uM (E. granulosus PSCs [1]; [5]): 0 | Anti-echinicoccus activity, Dose confirmaiton 10uM (E. granulosus PSCs [1]; [6]): 0 | Anti-echinicoccus activity, Dose confirmaiton 50uM (E. granulosus PSCs [1]; [7]): 100

O=c1[nH]c2ccc(Cl)cc2c(N[C@@H]2CN3CCC2CC3)c1-c1nc2ccccc2[nH]1 [CHIR-124]
Anti-echinicoccus activity, Initiate hits 50uM (E. granulosus PSCs [1]; [3]): 100 | Anti-echinicoccus activity, Dose confirmaiton 0.5uM (E. granulosus PSCs [1]; [4]): 0 | Anti-echinicoccus activity, Dose confirmaiton 2uM (E. granulosus PSCs [1]; [5]): 0 | Anti-echinicoccus activity, Dose confirmaiton 10uM (E. granulosus PSCs [1]; [6]): 20 | Anti-echinicoccus activity, Dose confirmaiton 50uM (E. granulosus PSCs [1]; [7]): 100

CC#CC(=O)Nc1ccc2ncnc(Nc3cccc(Br)c3)c2c1 [CL-387785 (EKI-785), CL-387785]
Anti-echinicoccus activity, Initiate hits 50uM (E. granulosus PSCs [1]; [3]): 95 | Anti-echinicoccus activity, Dose confirmaiton 0.5uM (E. granulosus PSCs [1]; [4]): 0 | Anti-echinicoccus activity, Dose confirmaiton 2uM (E. granulosus PSCs [1]; [5]): 0 | Anti-echinicoccus activity, Dose confirmaiton 10uM (E. granulosus PSCs [1]; [6]): 0 | Anti-echinicoccus activity, Dose confirmaiton 50uM (E. granulosus PSCs [1]; [7]): 100

CN1CCCN(C(=O)c2cccc(-c3ccc(/C=C4/C(=O)Nc5ccc(Cl)cc54)o3)c2)CC1.Cl [CX-6258 HCl]
Anti-echinicoccus activity, Dose confirmaiton 0.5uM (E. granulosus PSCs [1]): 0 | Anti-echinicoccus activity, Dose confirmaiton 2uM (E. granulosus PSCs [1]): 0 | Anti-echinicoccus activity, Dose confirmaiton 10uM (E. granulosus PSCs [1]): 0 | Anti-echinicoccus activity, Dose confirmaiton 50uM (E. granulosus PSCs [1]): 100 | Anti-echinicoccus activity, Initiate hits 50uM (E. granulosus PSCs [1]): 100

c1ccc(CNc2nc(NCc3ccccc3)c3ccccc3n2)cc1 [DBeQ]
Anti-echinicoccus activity, Initiate hits 50uM (E. granulosus PSCs [1]; [3]): 100 | Anti-echinicoccus activity, Dose confirmaiton 0.5uM (E. granulosus PSCs [1]; [4]): 0 | Anti-echinicoccus activity, Dose confirmaiton 2uM (E. granulosus PSCs [1]; [5]): 0 | Anti-echinicoccus activity, Dose confirmaiton 10uM (E. granulosus PSCs [1]; [6]): 100 | Anti-echinicoccus activity, Dose confirmaiton 50uM (E. granulosus PSCs [1]; [7]): 100

C[C@H](NC(=O)/C(C#N)=C/c1cccc(Br)n1)c1ccccc1 [WP-1066]
mortality at 0.5 µM (E. granulosus PSCs [2]; read-out: Anti-echinococcus activity % of death, 0.5uM, E. granulosus PSCs, compound at 0.5uM): 0% | mortality at 2 µM (E. granulosus PSCs [2]; read-out: Anti-echinococcus activity % of death, 2uM, E. granulosus PSCs, compound at 2uM): 0% | mortality at 10 µM (E. granulosus PSCs [2]; read-out: Anti-echinococcus activity % of death, 10uM, E. granulosus PSCs, compound at 10uM): 50% | mortality at 50 µM (E. granulosus PSCs [2]; read-out: Anti-echinococcus activity % of death, 50uM, E. granulosus PSCs, compound at 50uM): 100%

CCOC(=O)C(C)(C)CCCCOc1ccc(OCCCCCn2ccnc2)cc1 [YM-534]
mortality at 0.5 µM (E. granulosus PSCs [2]; [8]): 0% | mortality at 2 µM (E. granulosus PSCs [2]; [9]): 0% | mortality at 10 µM (E. granulosus PSCs [2]; [10]): 0% | mortality at 50 µM (E. granulosus PSCs [2]; [11]): 100%

C=CCc1c(OCCCNCc2ccccc2)ccc2c1[nH]c1ccccc12 [YM-75440]
mortality at 0.5 µM (E. granulosus PSCs [2]; [12]): 0% | mortality at 2 µM (E. granulosus PSCs [2]; [12]): 0% | mortality at 10 µM (E. granulosus PSCs [2]; [12]): 0% | mortality at 50 µM (E. granulosus PSCs [2]; [12]): 100%

CCOC(=O)C1=C(C)NC(CN(C)CC(C)(C)NCC(O)COc2ccccc2OC)=C(C(=O)OCC)C1c1cccc([N+](=O)[O-])c1 (centres unmarked) [Z 6568]
mortality at 0.5 µM (E. granulosus PSCs [2]; [12]): 0% | mortality at 2 µM (E. granulosus PSCs [2]; [12]): 0% | mortality at 10 µM (E. granulosus PSCs [2]; [12]): 0% | mortality at 50 µM (E. granulosus PSCs [2]; [12]): 100%

CCCCCCCCN=c1ccn(CCCCCCCC)cc1 [[…]]
mortality at 0.5 µM (E. granulosus PSCs [2]; [8]): 0% | mortality at 2 µM (E. granulosus PSCs [2]; [9]): 0% | mortality at 10 µM (E. granulosus PSCs [2]; [10]): 50% | mortality at 50 µM (E. granulosus PSCs [2]; [11]): 100%

CCN(CC)CCCNc1nccc2c(C)c3[nH]c4ccc(OC)cc4c3c(C)c12 [[…]]
mortality at 0.5 µM (E. granulosus PSCs [2]; [8]): 0% | mortality at 2 µM (E. granulosus PSCs [2]; [9]): 0% | mortality at 10 µM (E. granulosus PSCs [2]; [10]): 0% | mortality at 50 µM (E. granulosus PSCs [2]; [11]): 100%

COc1ccc(CCN2CCC(Nc3nc4ccccc4n3Cc3ccc(F)cc3)CC2)cc1 [astemizole]
mortality at 0.5 µM (E. granulosus PSCs [2]; [8]): 0% | mortality at 2 µM (E. granulosus PSCs [2]; [9]): 0% | mortality at 10 µM (E. granulosus PSCs [2]; [10]): 0% | mortality at 50 µM (E. granulosus PSCs [2]; [11]): 100%

CCOc1cc2c(c(F)c1OCC)C(=N)N(CC(=O)c1cc(N3CCOCC3)c(OC)c(C(C)(C)C)c1)C2 [atopaxar]
mortality at 0.5 µM (E. granulosus PSCs [2]; [12]): 0% | mortality at 2 µM (E. granulosus PSCs [2]; [12]): 0% | mortality at 10 µM (E. granulosus PSCs [2]; [12]): 0% | mortality at 50 µM (E. granulosus PSCs [2]; [12]): 100%
